{
  "source": "paper PMC12132917",
  "about": "“Carborane‐Based Analogs of Celecoxib and Flurbiprofen, their COX Inhibition Potential, and COX Selectivity Index” (Chemmedchem, 2025)",
  "data": [
    {"assay": "Stability in DMSO/water (1:1, v/v) by HPLC-UV-MS or analytical HPLC", "assay_type": "physicochemical", "conditions": "DMSO/H2O (1:1, v/v), RP-HPLC", "protocol": "The stability of compounds 6, 7, 9, 10, 13a,b, and 14a,b in aqueous solution was studied by HPLC‐UV‐MS or analytical HPLC measurements as well (see Supporting Information for details, “4 HPLC Stability Determination of Compounds 6, 7, 9, 10, 13a, 13b, 14a, 14b”). All compounds except 13a were stable for at least one day (Supporting Information, section 4 ).\nThe stability was evaluated for all compounds in a mixture of DMSO, dried over molecular sieve, and LC‐MS grade water (1:1, v/v) with the same HPLC‐UV‐MS systems as described under “Purity Determination”. The column, eluent system, flow and MS tool were operated in the same way. For the stability determination, a few milligrams of each compound were dissolved in 1 mL DMSO. To dissolve the compounds, they were vortexed and heated up if necessary. The stock solution was further diluted with water. For that, 50–100 μL of the stock solution was transferred into a vial and the same amount of LC‐MS grade water was added. The two solvents were mixed thoroughly, and the measurement with HPLC‐UV‐MS was directly started. Additionally, measurements were performed in a varying time frame, from 15 or 20 min to 1 day. Usually, the injection volume was 10 μL, and before the measurement of the samples, a blank run with only DMSO/LC‐MS grade water (1:1, v/v) was performed. […] For the latter compounds, the aforementioned system (Agilent 1200 system) and the following gradient was used: 0–3 min 45% eluent B, 3–28 min 45%–95% eluent B, 28–34 min 95% eluent B, 34–35 min 95%–45% eluent B, then 35–40 min 45% eluent B, flow: 0.75 mL min^−1.\n4 Stability Determination of Compounds 6, 7, 9, 10, 13a, 13b, 14a, 14b by HPLC A few milligrams of each compound have been dissolved in 1 mL DMSO, which was stored over molecular sieve.\n50-100 µL of the DMSO solution have been transferred into a separate vial together with the same amount of LC-MS grade water. The mixture was measured directly after water addition and in time intervals from 20 min to 1 d by HPLC-UV-MS or analytical HPLC measurements. All compounds were stable for at least one day except for […]\nrather for its nido-carborane analog, which was anyway the most prominent side product, no further stability measurements have been performed.\nFigure S74. RP-HPLC chromatograms of blank (DMSO/H2O, black and green) and compound 6, retention time: 10.5 min, purity after 1 d: >98%.\nFigure S75. RP-HPLC chromatograms of blank (DMSO/H2O, blue and pink) and compound 7, retention time: 8.3 min, purity after 1 d: >96%. […]", "values": [
      {"substance": "Cesium (R/S)‐2‐[2‐fluoro‐(1,1'‐biphenyl)‐4‐yl]‐N‐(7,8‐nido‐dicarbadodecahydroundecaborate(−1))‐ethylpropanamide [Compound 14b]", "purity after 1 d": "~ 95%"},
      {"substance": "Cesium (R/S)‐2‐[2‐fluoro‐(1,1′‐biphenyl)‐4‐yl]‐N‐(7,8‐nido‐dicarbadodecahydroundecaborate(−1))‐methylpropanamide [Compound 14a]", "purity after 1 d": "~ 95%"},
      {"substance": "(R/S)‐2‐[2‐fluoro‐(1,1′‐biphenyl)‐4‐yl]‐N‐(1,2‐closo‐dicarbadodecaborane)‐methylpropanamide [Compound 13a]", "purity after 1 d": "~ 89%"},
      {"substance": "(R/S)‐2‐[2‐fluoro‐(1,1′‐biphenyl)‐4‐yl]‐N‐(1,2‐closo‐dicarbadodecaborane)‐ethylpropanamide [Compound 13b]", "purity after 1 d": "> 97%"}
    ]}
  ]
}
